Earlier results, collected in US20200163956A1, “DIRECT BRAIN ADMINISTRATION OF CHEMOTHERAPEUTICS TO THE CSF FOR PATIENTS WITH PRIMARY AND SECONDARY BRAIN TUMORS” (Cerebral Therapeutics LLC, priority 2016, published 2020).

Details: in vivo, iv

## trastuzumab: humanized IgG1 kappa monoclonal antibody for the treatment of metastatic breast cancer
  CSF level lower than plasma levels: 300 fold
